Assay results reported in patent US10730889B2, “Amido spirocyclic amide and sulfonamide derivatives” (Forma TM, LLC, priority 2012, dated 2020).

Sequences of proteins named here, by UniProt entry; tags and fusion partners are left off. A change or cut given only in a name is not applied to a line headed by its entry.
UniProt P43490: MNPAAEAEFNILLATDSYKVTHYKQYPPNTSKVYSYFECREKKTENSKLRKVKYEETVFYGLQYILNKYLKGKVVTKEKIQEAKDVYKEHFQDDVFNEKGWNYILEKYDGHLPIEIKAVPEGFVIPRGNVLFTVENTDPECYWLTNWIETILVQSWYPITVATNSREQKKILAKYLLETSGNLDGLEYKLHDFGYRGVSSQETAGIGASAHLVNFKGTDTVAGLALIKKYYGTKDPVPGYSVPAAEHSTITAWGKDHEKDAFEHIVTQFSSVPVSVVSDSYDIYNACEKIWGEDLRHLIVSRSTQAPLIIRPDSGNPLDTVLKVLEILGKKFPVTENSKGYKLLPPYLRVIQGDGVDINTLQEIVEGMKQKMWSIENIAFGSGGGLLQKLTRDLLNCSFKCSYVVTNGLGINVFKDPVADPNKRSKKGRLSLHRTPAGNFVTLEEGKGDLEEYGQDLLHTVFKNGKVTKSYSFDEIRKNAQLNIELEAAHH

Molecular target: NAMPT (Homo sapiens (Human), UniProt P43490)
Test: Biochemical inhibition assay (NAMPT enzymatic reaction, NMN quantified by mass spectrometry)

SMILES	IC50 [nM]
Cc1ccncc1C(=O)N1CCC2(CC1)CC2CNC(=O)c1cc2cnccc2[nH]1 (stereo not shown) [Example 291, N-[[6-(4-methylpyridine-3-carbonyl)-6-azaspiro[2.5]octan-2-yl]methyl]-1H-pyrrolo[3,2-c]pyridine-2-carboxamide]	722
Cn1nc(C(C)(C)C)cc1C(=O)N1CCC2(CC1)CC2CNC(=O)c1cc2ccncc2o1 (stereo not shown) [Example 296, N-[[6-(5-tert-butyl-2-methyl-pyrazole-3-carbonyl)-6-azaspiro[2.5]octan-2-yl]methyl]furo[2,3-c]pyridine-2-carboxamide]	87.1
CCn1nccc1C(=O)N1CCC2(CC1)CC2CNC(=O)c1cc2ccncc2o1 (stereo not shown) [Example 297, N-[[6-(2-ethylpyrazole-3-carbonyl)-6-azaspiro[2.5]octan-2-yl]methyl]furo[2,3-c]pyridine-2-carboxamide]	92.5
Cc1cnn(C(C)(C)C)c1C(=O)N1CCC2(CC1)CC2CNC(=O)c1cc2ccncc2o1 (stereo not shown) [Example 298, N-[[6-(2-tert-butyl-4-methyl-pyrazole-3-carbonyl)-6-azaspiro[2.5]octan-2-yl]methyl]furo[2,3-c]pyridine-2-carboxamide]	213
Cc1cnn(C)c1C(=O)N1CCC2(CC1)CC2CNC(=O)c1cc2ccncc2o1 (stereo not shown) [Example 299, N-[[6-(2,4-dimethylpyrazole-3-carbonyl)-6-azaspiro[2.5]octan-2-yl]methyl]furo[2,3-c]pyridine-2-carboxamide]	165
O=C(NCC1CC12CCN(C(=O)c1n[nH]c3ccccc13)CC2)c1cc2ccncc2o1 (stereo not shown) [Example 302, N-[[6-(1H-indazole-3-carbonyl)-6-azaspiro[2.5]octan-2-yl]methyl]furo(2,3-c]pyridine-2-carboxamide]	64.8
CC(C)N1CCC(n2cc(C(=O)N3CCC4(CC3)CC4CNC(=O)c3cc4ccncc4o3)cn2)C1 (stereo not shown) [Example 303, N-[[6-(1-(1-isopropylpyrrolidin-3-yl)pyrazole-4-carbonyl]-6-azaspiro[2.5]octan-2-yl]methyl]furo[2,3-c]pyridine-2-carboxamide]	478
Cc1nn(C)cc1-c1cc(C(=O)N2CCC3(CC2)CC3CNC(=O)c2cc3ccncc3o2)no1 (stereo not shown) [Example 305, N-[[6-[5-(1,3-dimethylpyrazol-4-yl)isoxazole-3-carbonyl]-6-azaspiro[2.5]octan-2-yl]methyl]furo[2,3-c]pyridine-2-carboxamide]	97.9
CC(C)(C)OC(=O)N1Cc2[nH]nc(C(=O)N3CCC4(CC3)CC4CNC(=O)c3cc4ccncc4o3)c2C1 (stereo not shown) [Example 306, tert-butyl 3-[2-[(furo[2,3-c]pyridine-2-carbonylamino)methyl]-6-azaspiro[2.5]octane-6-carbonyl]-4,6-dihydro-1H-pyrrolo[3,4-c]pyrazole-5-carboxylate]	67.8
CN1CCC(n2cc(C(=O)N3CCC4(CC3)CC4CNC(=O)c3cc4ccncc4o3)cn2)C1 (stereo not shown) [Example 307, N-[[6-[1-(1-methylpyrrolidin-3-yl)pyrazole-4-carbonyl]-6-azaspiro[2.5]octan-2-yl]methyl]furo[2,3-c]pyridine-2-carboxamide]	85.8
Cc1cc(C(=O)N2CCC3(CC2)CC3CNC(=O)c2cc3ccncc3o2)n(C(C)(C)C)n1 (stereo not shown) [Example 308, N-[[6-(2-tert-butyl-5-methyl-pyrazole-3-carbonyl)-6-azaspiro[2.5]octan-2-yl]methyl]furo[2,3-c]pyridine-2-carboxamide]	116
Cc1nc2ccccn2c1C(=O)N1CCC2(CC1)CC2CNC(=O)c1cc2ccncc2o1 (stereo not shown) [Example 309, N-[[6-(2-methylimidazo[1,2-a]pyridine-3-carbonyl)-6-azaspiro[2.5]octan-2-yl]methyl]furo[2,3-c]pyridine-2-carboxamide]	82.2
Cc1ccc2nc(C(=O)N3CCC4(CC3)CC4CNC(=O)c3cc4ccncc4o3)[nH]c2c1 (stereo not shown) [Example 310, N-[[6-(6-methyl-1H-benzimidazole-2-carbonyl)-6-azaspiro[2.5]octan-2-yl]methyl]furo[2,3-c]pyridine-2-carboxamide]	119
Cc1cccc2nc(C(=O)N3CCC4(CC3)CC4CNC(=O)c3cc4ccncc4o3)cn12 (stereo not shown) [Example 311, N-[[6-(5-methylimidazo[1,2-a]pyridine-2-carbonyl)-6-azaspiro[2.5]octan-2-yl]methyl]furo[2,3-c]pyridine-2-carboxamide]	15.8
O=C(NCC1CC12CCN(C(=O)c1cc3ncccn3n1)CC2)c1cc2ccncc2o1 (stereo not shown) [Example 313, N-[[6-(pyrazolo[1,5-a]pyrimidine-2-carbonyl)-6-azaspiro[2.5]octan-2-yl]methyl]furo[2,3-c]pyridine-2-carboxamide]	36.3
CCn1nc(C)c(C(=O)N2CCC3(CC2)CC3CNC(=O)c2cc3ccncc3o2)c1C (stereo not shown) [Example 314, N-[[6-(1-ethyl-3,5-dimethyl-pyrazole-4-carbonyl)-6-azaspiro[2.5]octan-2-yl]methyl]furo[2,3-c]pyridine-2-carboxamide]	45.9
Cc1ccc2nc(C(=O)N3CCC4(CC3)CC4CNC(=O)c3cc4ccncc4o3)cn2c1 (stereo not shown) [Example 315, N-[[6-(6-methylimidazo[1,2-a]pyridine-2-carbonyl)-6-azaspiro[2.5]octan-2-yl]methyl]furo[2,3-c]pyridine-2-carboxamide]	57.2

SMILES	IC50 [nM]
O=C(NCC1CC12CCN(C(=O)c1cnn3ccccc13)CC2)c1cc2ccncc2o1 (stereo not shown) [Example 316, N-[[6-(pyrazolo[1,5-a]pyridine-3-carbonyl)-6-azaspiro[2.5]octan-2-yl]methyl]furo[2,3-c]pyridine-2-carboxamide]	744
O=C(NCC1CC12CCN(C(=O)c1cn3ccccc3n1)CC2)c1cc2ccncc2o1 (stereo not shown) [Example 317, N-[[6-(imidazo[1,2-a]pyridine-2-carbonyl)-6-azaspiro[2.5]octan-2-yl]methyl]furo[2,3-c]pyridine-2-carboxamide]	44.3
CC(C)c1oncc1C(=O)N1CCC2(CC1)CC2CNC(=O)c1cc2ccncc2o1 (stereo not shown) [Example 318, N-[[6-(5-isopropylisoxazole-4-carbonyl)-6-azaspiro[2.5]octan-2-yl]methyl]furo[2,3-c]pyridine-2-carboxamide]	436
CC(C)Cc1cc(C(=O)N2CCC3(CC2)CC3CNC(=O)c2cc3ccncc3o2)[nH]n1 (stereo not shown) [Example 319, N-[[6-(3-isobutyl-1H-pyrazole-5-carbonyl)-6-azaspiro[2.5]octan-2-yl]methyl]furo[2,3-c]pyridine-2-carboxamide]	77.6
O=C(NCC1CC12CCN(C(=O)c1cn3cccnc3n1)CC2)c1cc2ccncc2o1 (stereo not shown) [Example 320, N-[[6-(imidazo[1,2-a]pyrimidine-2-carbonyl)-6-azaspiro[2.5]octan-2-yl]methyl]furo[2,3-c]pyridine-2-carboxamide]	130
O=C(NCC1CC12CCN(C(=O)c1cnn3cccnc13)CC2)c1cc2ccncc2o1 (stereo not shown) [Example 321, N-[[6-(pyrazolo[1,5-a]pyrimidine-3-carbonyl)-6-azaspiro[2.5]oclan-2-yl]methyl]furo[2,3-c]pyridine-2-carboxamide]	523
CC(C)(C)c1cc(C(=O)N2CCC3(CC2)CC3CNC(=O)c2cc3ccncc3o2)[nH]n1 (stereo not shown) [Example 322, N-[[6-(3-tert-butyl-1H-pyrazole-5-carbonyl)-6-azaspiro[2.5]octan-2-yl]methyl]furo[2,3-c]pyridine-2-carboxamide]	28.2
CC(C)c1cc(C(=O)N2CCC3(CC2)CC3CNC(=O)c2cc3ccncc3o2)n[nH]1 (stereo not shown) [Example 323, N-[[6-(5-isopropyl-1H-pyrazole-3-carbonyl)-6-azaspiro[2.5]octan-2-yl]methyl]furo[2,3-c]pyridine-2-carboxamide]	613
CC(C)c1n[nH]cc1C(=O)N1CCC2(CC1)CC2CNC(=O)c1cc2ccncc2o1 (stereo not shown) [Example 324, N-[[6-(3-isopropyl-1H-pyrazole-4-carbonyl)-6-azaspiro[2.5]octan-2-yl]methyl]furo[2,3-c]pyridine-2-carboxamide]	137
CC(C)n1nccc1C(=O)N1CCC2(CC1)CC2CNC(=O)c1cc2ccncc2o1 (stereo not shown) [Example 325, N-[[6-(2-isopropylpyrazole-3-carbonyl)-6-azaspiro[2.5]octan-2-yl]methy]furo[2,3-c]pyridine-2-carboxamide]	69.8
CCc1cc(C(=O)N2CCC3(CC2)CC3CNC(=O)c2cc3ccncc3o2)n(C)n1 (stereo not shown) [Example 326, N-[[6-(5-ethyl-2-methyl-pyrazole-3-carbonyl)-6-azaspiro[2.5]octan-2-yl]methyl]furo[2,3-c]pyridine-2-carboxamide]	33.9
O=C(NCC1CC12CCN(C(=O)c1cc(C3CC3)on1)CC2)c1cc2ccncc2o1 (stereo not shown) [Example 327, N-[[6-(5-cyclopropylisoxazole-3-carbonyl)-6-azaspiro[2.5]octan-2-yl]methyl]furo[2,3-c]pyridine-2-carboxamide]	159
O=C(NCC1CC12CCN(C(=O)c1cnoc1C1CC1)CC2)c1cc2ccncc2o1 (stereo not shown) [Example 328, N-[[6-(5-cyclopropylisoxazole-4-carbonyl)-6-azaspiro[2.5]octan-2-yl]methyl]furo[2,3-c]pyridine-2-carboxamide]	40
Cc1n[nH]c(C)c1C(=O)N1CCC2(CC1)CC2CNC(=O)c1cc2ccncc2o1 (stereo not shown) [Example 329, N-[[6-(3,5-dimethyl-1H-pyrazole-4-carbonyl)-6-azaspiro[2.5]octan-2-yl]methyl]furo[2,3-c]pyridine-2-carboxamide]	50
Cc1c(C(=O)N2CCC3(CC2)CC3CNC(=O)c2cc3ccncc3o2)cnn1C (stereo not shown) [Example 330, N-[[6-(1,5-dmiethylpyrazole-4-carbonyl)-6-azaspiro[2.5]octan-2-yl]methyl]furo[2,3-c]pyridine-2-carboxamide]	80.6
Cc1ncoc1C(=O)N1CCC2(CC1)CC2CNC(=O)c1cc2ccncc2o1 (stereo not shown) [Example 331, N-[[6-(4-methyloxazole-5-carbonyl)-6-azaspiro[2.5]octan-2-yl]methyl]furo[2,3-c]pyridine-2-carboxamide]	24.3
O=C(NCC1CC12CCN(C(=O)c1c[nH]nc1C1CC1)CC2)c1cc2ccncc2o1 (stereo not shown) [Example 332, N-[[6-(3-cyclopropyl-1H-pyrazole-4-carbonyl)-6-azaspiro[2.5]oetan-2-yl]methyl]furo[2,3-c]pyridine-2-carboxamide]	16.9
